Values of other authors in patent publication US5980939A, “Cyclosporin-containing pharmaceutical composition” (Chong Kun Dang Corp., priority 1996, dated 1999).

System: rat
Conditions: per oral; cited from earlier work

For butanol, the LD50 is listed as 4360 mg/kg.
